# Data: ChEMBL document CHEMBL3758136, “Design, synthesis and in vitro activity of phidianidine B derivatives as novel PTP1B inhibitors with specific selectivity” (Bioorg Med Chem Lett, 2016)
# Amino acid sequences for entries named in this document (tags omitted).
# UniProt Q06124, whole entry: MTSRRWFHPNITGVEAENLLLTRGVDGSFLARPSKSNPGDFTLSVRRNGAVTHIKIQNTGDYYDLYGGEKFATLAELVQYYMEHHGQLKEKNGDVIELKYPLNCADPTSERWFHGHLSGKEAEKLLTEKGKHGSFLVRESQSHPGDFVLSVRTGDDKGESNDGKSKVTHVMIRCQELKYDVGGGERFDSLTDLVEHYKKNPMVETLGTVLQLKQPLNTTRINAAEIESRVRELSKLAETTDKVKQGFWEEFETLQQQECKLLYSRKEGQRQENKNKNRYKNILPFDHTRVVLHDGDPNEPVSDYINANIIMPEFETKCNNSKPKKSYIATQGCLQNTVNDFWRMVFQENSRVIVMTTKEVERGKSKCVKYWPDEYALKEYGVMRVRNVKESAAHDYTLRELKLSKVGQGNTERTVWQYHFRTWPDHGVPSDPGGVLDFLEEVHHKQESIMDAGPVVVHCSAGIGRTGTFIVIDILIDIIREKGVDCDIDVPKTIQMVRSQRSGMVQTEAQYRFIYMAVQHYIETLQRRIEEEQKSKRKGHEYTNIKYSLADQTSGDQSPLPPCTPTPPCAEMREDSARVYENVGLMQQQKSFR
# Molecular target: Tyrosine-protein phosphatase non-receptor type 11 (Homo sapiens, UniProt Q06124)
# Assay: Inhibition of human SHP2 as hydrolysis of pNPP after 2 mins
compound,measurement,value
Oc1ccc(-c2cccc(-c3noc(Cc4c[nH]c5ccccc45)n3)n2)cc1,IC50,> 120 µM
